The values below come from patent US20100184668A1 (EMORY UNIVERSITY, published 2010).

The target in test [1] is T1, thrombospondin-1 (TSP1), secreted into conditioned medium of LN229 clone C9 (UniProt P07996).
T1 construct: Positive control in the GST pull-down
Kind of test: GST pull-down from conditioned medium of LN229 clone C9, Western blot. The method, then: (§1) FIG. 5C illustrates a GST pull-down assay. GST alone or the two recombinant GST-CD36 peptides were bound to glutathione sepharose beads and CM from LN229 glioma cells stably expressing Vstat120 (+lanes) or control cells (−lanes) were tested for protein interaction. A separate pull-down assay with CM from TSP1 expressing cells (LN229 clone C9) was used as a positive control. The bound proteins were eluted and analyzed for Vstat120 and TSP1 expression by western blot. Both the GST tagged CD36 containing recombinant peptides could pull down Vstat120 and TSP1 but not the purified GST. Positive control lanes are TCA precipitations of CM (collected serum-free after 96 hrs) that express either Vstat120 or TSP1.
(§2) The anti-angiogenic effects of TSP-1 and -2 mediated by their binding to CD36 on endothelial cells is dependent upon the binding of the TSR domain(s) to a conserved region within CD36 called the CLESH domain. The ability of Vstat120 to bind to recombinant CD36 CLESH domain peptides was tested. GST-tagged peptides spanning amino acids 5 to 143, and 67 to 157 of CD36 were expressed and purified in E. coli (FIGS. 5A and 5B). The indicated GST fusion proteins were tested for their ability to bind to TSP1. Briefly the indicated recombinant peptide bound to glutathione-sepharose beads was used to pull down TSP1 from CM of LN229 cells constitutively expressing TSP1 (clone C9). […]

Test [2] addresses T2, Vasculostatin 120 (Vstat120), myc/his-tagged, secreted into conditioned medium (human, UniProt O14514 33-926).
T2 construct: Used as unpurified conditioned medium: LN229 clone 13 (pcDNA3.1mychisVstat120) for the pull-down, transfected 293 cells for the migration and cornea assays; also called 120 kDa fragment of BAI1; not shown: myc/his tag of the pcDNA3.1 expression vector
T2 sequence: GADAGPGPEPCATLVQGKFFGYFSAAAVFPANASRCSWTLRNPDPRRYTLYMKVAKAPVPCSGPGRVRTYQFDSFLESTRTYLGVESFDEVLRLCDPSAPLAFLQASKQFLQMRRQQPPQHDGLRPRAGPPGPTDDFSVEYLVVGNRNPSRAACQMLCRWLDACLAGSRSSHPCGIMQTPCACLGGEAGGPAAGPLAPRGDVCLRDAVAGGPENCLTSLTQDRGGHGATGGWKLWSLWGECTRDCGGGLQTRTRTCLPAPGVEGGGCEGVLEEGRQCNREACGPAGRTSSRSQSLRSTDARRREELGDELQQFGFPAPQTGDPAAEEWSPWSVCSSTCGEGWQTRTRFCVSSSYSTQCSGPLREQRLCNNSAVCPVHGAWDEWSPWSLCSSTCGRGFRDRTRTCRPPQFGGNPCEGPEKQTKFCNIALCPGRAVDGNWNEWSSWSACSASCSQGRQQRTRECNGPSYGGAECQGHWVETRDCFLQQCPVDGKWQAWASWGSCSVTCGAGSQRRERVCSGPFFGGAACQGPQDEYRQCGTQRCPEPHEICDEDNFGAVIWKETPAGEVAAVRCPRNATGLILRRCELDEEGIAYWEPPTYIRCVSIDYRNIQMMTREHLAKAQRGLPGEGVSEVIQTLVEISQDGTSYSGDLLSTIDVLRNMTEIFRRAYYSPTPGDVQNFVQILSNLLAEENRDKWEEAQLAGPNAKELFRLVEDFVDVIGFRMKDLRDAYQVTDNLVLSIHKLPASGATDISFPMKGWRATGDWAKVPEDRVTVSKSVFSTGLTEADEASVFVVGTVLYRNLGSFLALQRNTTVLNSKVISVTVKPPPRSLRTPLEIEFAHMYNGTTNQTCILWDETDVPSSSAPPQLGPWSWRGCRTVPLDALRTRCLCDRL
Description: GST pull-down from conditioned medium of LN229 cells expressing Vstat120, Western blot. Here is the method:
as §1, §2
On the technique in general: In western blotting, separated proteins are transferred to a membrane and probed.

B1: purified GST (glutathione S-transferase alone) (other, UniProt P08515 1-218, looked up)
chain: MSPILGYWKIKGLVQPTRLLLEYLEEKYEEHLYERDEGDKWRNKKFELGLEFPNLPYYIDGDVKLTQSMAIIRYIADKHNMLGGCPKERAEISMLEGAVLDIRYGVSRIAYSKDFETLKVDFLSKLPEMLKMFEDRLCHKTYLNGDHVTHPDFMLYDALDVVLYMDPMCLDAFPKLVCFKKRIEAIPQIDKYLKSSKYIAWPLQGWQATFGGGDHPPK
notes: Negative control in the pull-down; also called GST alone
For the molecule B1, the binding result in test [1] and in test [2] was “no binding” in each case.
